Each structure is given as a SMILES string.

For this assay, the target named is T1, 17-beta-hydroxysteroid dehydrogenase type 3 (Homo sapiens) (UniProt P37058).
T1 sequence (whole entry): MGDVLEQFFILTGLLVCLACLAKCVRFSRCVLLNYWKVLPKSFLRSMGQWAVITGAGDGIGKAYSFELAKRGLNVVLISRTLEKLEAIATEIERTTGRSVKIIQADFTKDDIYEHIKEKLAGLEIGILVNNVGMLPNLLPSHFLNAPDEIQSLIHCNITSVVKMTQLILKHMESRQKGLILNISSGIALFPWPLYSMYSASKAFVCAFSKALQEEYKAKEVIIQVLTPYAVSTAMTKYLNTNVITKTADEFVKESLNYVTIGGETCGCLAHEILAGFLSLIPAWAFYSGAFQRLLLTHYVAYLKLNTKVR
Kind of assay: Potency index, ratio of RM-532-105 IC50 to test compound IC50 for 17beta-HSD3 (unknown origin) expressed in human LNCAP cells. Type of assay: cell-based.
On to `CC1CN(S(=O)(=O)c2ccccc2C(F)(F)F)C(C)CN1C[C@@]1(O)CC[C@@]2(C)[C@@H](CC[C@@H]3[C@@H]2CC[C@]2(C)/C(=N/O)CC[C@@H]32)C1` (stereo not given in full), for which the Ratio IC50 is 0.41.

In the case of `CC1CN(S(=O)(=O)c2ccccc2C(F)(F)F)C(C)CN1CC(O)c1ccc2c(c1)CC[C@@H]1[C@@H]2CC[C@]2(C)C(=O)CC[C@@H]12` (single isomer, unassigned; diastereomer B), the Ratio IC50 is 4.5.

On to `CC1CN(S(=O)(=O)c2ccccc2C(F)(F)F)C(C)CN1Cc1cc2c(cc1O)CC[C@@H]1[C@@H]2CC[C@]2(C)C(=O)CC[C@@H]12` (stereo not given in full), for which the Ratio IC50 turned out to be 0.53.

On to `CC1CN(S(=O)(=O)c2ccccc2C(F)(F)F)C(C)CN1C(=O)c1ccc2c(c1)CC[C@@H]1[C@@H]2CC[C@]2(C)C(=O)CC[C@@H]12` (stereo not given in full), for which the Ratio IC50 was found to be 0.9.

In the case of `CC1CN(S(=O)(=O)c2ccccc2C(F)(F)F)C(C)CN1CCc1ccc2c(c1)CC[C@@H]1[C@@H]2CC[C@]2(C)C(=O)CC[C@@H]12` (stereo not given in full), the Ratio IC50 worked out at 0.69.

Values taken from ChEMBL document CHEMBL4406803, “A- and D-Ring Structural Modifications of an Androsterone Derivative Inhibiting 17β-Hydroxysteroid Dehydrogenase Type 3: Chemical Synthesis and Structure-Activity Relationships” (J Med Chem, 2019).
